According to PMC12559223, “Structural basis of apoptosis induction by the mitochondrial voltage-dependent anion channel” (Nature Communications, 2025):
Values belong to the binder of their own block, whether it stands above or below them.

Protein sequences, listed by entry. Tags and fused reporters are not part of them. Lines headed by an entry give the natural chain unless they say otherwise; changes in a name come on top. Chains listed by the source or under a name are the forms on record and can include a tag or linker.
UniProt Q07817, other isoform, or with tags, fused parts or gaps with the stated changes: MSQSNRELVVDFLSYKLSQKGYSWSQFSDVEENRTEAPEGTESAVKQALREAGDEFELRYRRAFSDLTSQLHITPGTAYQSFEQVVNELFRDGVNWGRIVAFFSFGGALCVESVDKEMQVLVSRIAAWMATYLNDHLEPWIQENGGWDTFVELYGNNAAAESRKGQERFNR
UniProt P21796: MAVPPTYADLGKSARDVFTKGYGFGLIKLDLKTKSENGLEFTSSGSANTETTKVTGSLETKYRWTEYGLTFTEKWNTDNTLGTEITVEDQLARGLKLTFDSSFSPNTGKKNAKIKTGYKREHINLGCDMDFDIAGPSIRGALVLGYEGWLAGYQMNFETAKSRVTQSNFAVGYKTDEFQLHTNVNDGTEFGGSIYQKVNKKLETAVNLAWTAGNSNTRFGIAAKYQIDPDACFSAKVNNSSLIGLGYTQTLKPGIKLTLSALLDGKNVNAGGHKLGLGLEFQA

What was measured:
[1] = target: T1, human BclxLΔLT (BclxL without the flexible loop and the transmembrane helix) (human, UniProt Q07817-1 1-212, flexible loop (residues 44–84) deleted); test: ITC; MicroCal PEAQ-ITC, 20 °C; BclxLΔLT in the cell (250 µM for the linear, 50 µM for the stapled peptide), peptide in the syringe (500 µM stapled); 10 mM NaPi pH 7.0, 50 mM NaCl, 0.5 mM EDTA, 1 mM DTT; settings: both partners purified
T1 construct: BclxL, human, residues 1-43 and 85-212 (flexible loop 44-84 and transmembrane helix deleted); the NMR methods say 1-44 and 85-213; Isotope-labelled for NMR; In the crystal it stood fused to VDAC1-N(1-26) on one chain; source: E. coli BL21 (DE3), purified (Ni-NTA, SEC)

[2] = target: human BclxLΔLT (BclxL without the flexible loop and the transmembrane helix) (human, UniProt Q07817-1 1-212, flexible loop (residues 44–84) deleted); test: NMR

Kd [1]: 29 µM
B1: VDAC1-N-terminal peptide (residues 1–24), linear (peptide, UniProt P21796 1-24, looked up)
peptide: MAVPPTYADLGKSARDVFTKGYGF
notes: VDAC1, human, N-terminal part, residues 1-24; other VDAC1-N constructs of 2-25 and 1-26 are described in the methods; also called linear VDAC1-N peptide; linear peptide

Kd [2]: 5 µM
B2: hydrocarbon-stapled VDAC1 peptide encompassing residues 7–21 (stVDAC1-N) (peptide)
chain: YADLGKSARDVFTKG
modifications: hydrocarbon staple between residues 11 and 15
